Values quoted from earlier work in US20220143123A1, “Prevention of Pathological Coagulation in COVID-19 and other Inflammatory Conditions” (priority 2020, published 2022).

How the values were obtained:
[1] = tested on: mice with experimental colitis; conditions: 50 and 100 mg/kg/day, compared with the MD group; cited from earlier work
[2] = tested on: lipopolysaccharide-activated macrophages; conditions: 5 and 10 microM, 6-24 hr, versus macrophages without EGCG; cited from earlier work
[3] = tested on: mice with LPS-induced ARDS; conditions: 10 mg/kg ip 1 h before LPS 10 mg/kg ip; cited from earlier work

Substance: epigallocatechin-3-gallate [EGCG]
- disease activity index (DAI) and spleen index (SI) [1]: decreased DAIs and SIs
- iNOS activity in soluble extracts [2]: significantly lower
- LPS-induced ARDS (blood gases, histological lesions, wet-to-dry weight ratios, MPO activity) [3]: attenuated LPS-induced ARDS
